Measured values from patent publication US20070160574A1, “Design of CXC chemokine analogs for the treatment of human diseases” (priority 2000, published 2007).

Tested on: IL-8 receptor (differentiated HL-60 cells)
Assay: Calcium mobilization in differentiated HL-60 cells, Fluo-4/AM
Assay type: cell-based
Conditions: over control wells (plain medium = 1.0), about 10 to 200 μg/ml
Protocol: The HL-60 cells are cultured as described above, harvested and suspended in Tyrode's salt solution at a density of about 2×10^6 cells/ml. The Tyrode's salt solution contains about 137 mM NaCl, 2.7 mM KCl, 1 mM MgCl2, 1 mM CaCl2, 0.2 mM NaH2PO4, 12 mM NaHCO3, and 5.5 mM glucose.
The cells are labeled with 4 μM of Fluo-4/AM (Molecular Probes, Inc.) for 45 minutes at 37° C. to measure calcium mobilization from cells. The label is a dye that fluoresces when bound to calcium. […] An increase in fluorescence indicates an increase in calcium mobilization. The cells are washed three times with the Tyrode's salt solution after labeling and re-suspended at 5×10^6 cells/ml.
Changes in the level of cellular fluorescence are read in a Thermo Labsystems Fluorskan Acsent fluorescence plate reader (VWR Scientific Prod's). The controls include cells treated with either the native chemokine or the plain medium of Tyrode's Salt Solution. Data is expressed using 1.0 as the standard level of fluorescence in the plain medium. The reported values represent the mean of at least duplicate measurements from wells in one or more experiments.

SMILES | Average fold increase in calcium mobilization | Average fold increase in calcium mobilization (listed as 1666)
CC[C@H](C)[C@H](NC(=O)[C@H](Cc1ccccc1)NC(=O)[C@H](CCC(N)=O)NC(=O)[C@H](C)NC(=O)[C@H](CCCNC(=N)N)NC(=O)[C@H](CC(C)C)NC(=O)[C@H](CCC(=O)O)NC(=O)[C@H](CCCCN)NC(=O)[C@H](C)NC(=O)[C@H](CO)NC(C)=O)C(=O)N[C@@H](CCCCN)C(=O)N[C@H](C(=O)N[C@@H](Cc1ccc(O)cc1)C(=O)N[C@@H](CO)C(=O)N[C@@H](CCCCN)C(=O)NCCCCCCCCCCC(=O)N[C@@H](CC(N)=O)C(=O)N[C@@H](Cc1c[nH]c2ccccc12)C(=O)N[C@H](C(=O)N[C@@H](CCC(N)=O)C(=O)N[C@@H](CCCNC(=N)N)C(=O)N[C@H](C(=O)N[C@H](C(=O)N[C@@H](CCC(=O)O)C(=O)N[C@@H](CCCCN)C(=O)N[C@@H](Cc1ccccc1)C(=O)N[C@@H](CC(C)C)C(=O)N[C@@H](CCCCN)C(=O)N[C@@H](CCCNC(=N)N)C(=O)N[C@@H](C)C(=O)N[C@@H](CCC(=O)O)C(=O)N[C@@H](CC(N)=O)C(N)=O)C(C)C)C(C)C)C(C)C)[C@@H](C)O [SEQ ID NO:1664] | 147.5 | 
CC[C@H](C)[C@H](NC(=O)[C@H](Cc1ccc(O)cc1)NC(=O)[C@H](CCC(N)=O)NC(=O)[C@H](C)NC(=O)[C@H](CCCNC(=N)N)NC(=O)[C@H](CC(C)C)NC(=O)[C@H](CCC(=O)O)NC(=O)[C@H](CCCCN)NC(=O)[C@H](C)NC(=O)[C@H](CO)NC(C)=O)C(=O)N[C@@H](CCCCN)C(=O)N[C@H](C(=O)N[C@@H](Cc1ccc(O)cc1)C(=O)N[C@@H](CO)C(=O)N[C@@H](CCCCN)C(=O)NCCCCCCCCCCC(=O)N[C@@H](CC(N)=O)C(=O)N[C@@H](Cc1c[nH]c2ccccc12)C(=O)N[C@H](C(=O)N[C@@H](CCC(N)=O)C(=O)N[C@@H](CCCNC(=N)N)C(=O)N[C@H](C(=O)N[C@H](C(=O)N[C@@H](CCC(=O)O)C(=O)N[C@@H](CCCCN)C(=O)N[C@@H](Cc1ccccc1)C(=O)N[C@@H](CC(C)C)C(=O)N[C@@H](CCCCN)C(=O)N[C@@H](CCCNC(=N)N)C(=O)N[C@@H](C)C(=O)N[C@@H](CCC(=O)O)C(=O)N[C@@H](CC(N)=O)C(N)=O)C(C)C)C(C)C)C(C)C)[C@@H](C)O [SEQ ID NO:1665] | 103.6 | 
CC[C@H](C)[C@H](NC(=O)[C@H](Cc1ccccc1)NC(=O)[C@H](CCC(N)=O)NC(=O)[C@H](Cc1ccc(O)cc1)NC(=O)[C@H](CCCNC(=N)N)NC(=O)[C@H](CC(C)C)NC(=O)[C@H](CCC(=O)O)NC(=O)[C@H](CCCCN)NC(=O)[C@H](C)NC(=O)[C@H](CO)NC(C)=O)C(=O)N[C@@H](CCCCN)C(=O)N[C@H](C(=O)N[C@@H](Cc1ccc(O)cc1)C(=O)N[C@@H](CO)C(=O)N[C@@H](CCCCN)C(=O)NCCCCCCCCCCC(=O)N[C@@H](CC(N)=O)C(=O)N[C@@H](Cc1c[nH]c2ccccc12)C(=O)N[C@H](C(=O)N[C@@H](CCC(N)=O)C(=O)N[C@@H](CCCNC(=N)N)C(=O)N[C@H](C(=O)N[C@H](C(=O)N[C@@H](CCC(=O)O)C(=O)N[C@@H](CCCCN)C(=O)N[C@@H](Cc1ccccc1)C(=O)N[C@@H](CC(C)C)C(=O)N[C@@H](CCCCN)C(=O)N[C@@H](CCCNC(=N)N)C(=O)N[C@@H](C)C(=O)N[C@@H](CCC(=O)O)C(=O)N[C@@H](CC(N)=O)C(N)=O)C(C)C)C(C)C)C(C)C)[C@@H](C)O [SEQ ID NO:1666] |  | 143.8
CC[C@H](C)[C@H](NC(=O)[C@H](Cc1ccc(O)cc1)NC(=O)[C@H](CCC(N)=O)NC(=O)[C@H](Cc1ccc(O)cc1)NC(=O)[C@H](CCCNC(=N)N)NC(=O)[C@H](CC(C)C)NC(=O)[C@H](CCC(=O)O)NC(=O)[C@H](CCCCN)NC(=O)[C@H](C)NC(=O)[C@H](CO)NC(C)=O)C(=O)N[C@@H](CCCCN)C(=O)N[C@H](C(=O)N[C@@H](Cc1ccc(O)cc1)C(=O)N[C@@H](CO)C(=O)N[C@@H](CCCCN)C(=O)NCCCCCCCCCCC(=O)N[C@@H](CC(N)=O)C(=O)N[C@@H](Cc1c[nH]c2ccccc12)C(=O)N[C@H](C(=O)N[C@@H](CCC(N)=O)C(=O)N[C@@H](CCCNC(=N)N)C(=O)N[C@H](C(=O)N[C@H](C(=O)N[C@@H](CCC(=O)O)C(=O)N[C@@H](CCCCN)C(=O)N[C@@H](Cc1ccccc1)C(=O)N[C@@H](CC(C)C)C(=O)N[C@@H](CCCCN)C(=O)N[C@@H](CCCNC(=N)N)C(=O)N[C@@H](C)C(=O)N[C@@H](CCC(=O)O)C(=O)N[C@@H](CC(N)=O)C(N)=O)C(C)C)C(C)C)C(C)C)[C@@H](C)O [SEQ ID NO:1667] | 57.3 | 
CC[C@H](C)[C@H](NC(=O)[C@H](Cc1ccc(O)cc1)NC(=O)[C@H](CCC(N)=O)NC(=O)[C@H](Cc1c[nH]cn1)NC(=O)[C@H](CCCNC(=N)N)NC(=O)[C@H](CC(C)C)NC(=O)[C@H](CCC(=O)O)NC(=O)[C@H](CCCCN)NC(=O)[C@H](C)NC(=O)[C@H](CO)NC(C)=O)C(=O)N[C@@H](CCCCN)C(=O)N[C@H](C(=O)N[C@@H](Cc1ccc(O)cc1)C(=O)N[C@@H](CO)C(=O)N[C@@H](CCCCN)C(=O)NCCCCCCCCCCC(=O)N[C@@H](CC(N)=O)C(=O)N[C@@H](Cc1c[nH]c2ccccc12)C(=O)N[C@H](C(=O)N[C@@H](CCC(N)=O)C(=O)N[C@@H](CCCNC(=N)N)C(=O)N[C@H](C(=O)N[C@H](C(=O)N[C@@H](CCC(=O)O)C(=O)N[C@@H](CCCCN)C(=O)N[C@@H](Cc1ccccc1)C(=O)N[C@@H](CC(C)C)C(=O)N[C@@H](CCCCN)C(=O)N[C@@H](CCCNC(=N)N)C(=O)N[C@@H](C)C(=O)N[C@@H](CCC(=O)O)C(=O)N[C@@H](CC(N)=O)C(N)=O)C(C)C)C(C)C)C(C)C)[C@@H](C)O [SEQ ID NO:1668] | 105.4 | 
CC[C@H](C)[C@H](NC(=O)[C@H](Cc1c[nH]c2ccccc12)NC(=O)[C@H](CCC(N)=O)NC(=O)[C@H](Cc1ccc(O)cc1)NC(=O)[C@H](CCCNC(=N)N)NC(=O)[C@H](CC(C)C)NC(=O)[C@H](CCC(=O)O)NC(=O)[C@H](CCCCN)NC(=O)[C@H](C)NC(=O)[C@H](CO)NC(C)=O)C(=O)N[C@@H](CCCCN)C(=O)N[C@H](C(=O)N[C@@H](Cc1ccc(O)cc1)C(=O)N[C@@H](CO)C(=O)N[C@@H](CCCCN)C(=O)NCCCCCCCCCCC(=O)N[C@@H](CC(N)=O)C(=O)N[C@@H](Cc1c[nH]c2ccccc12)C(=O)N[C@H](C(=O)N[C@@H](CCC(N)=O)C(=O)N[C@@H](CCCNC(=N)N)C(=O)N[C@H](C(=O)N[C@H](C(=O)N[C@@H](CCC(=O)O)C(=O)N[C@@H](CCCCN)C(=O)N[C@@H](Cc1ccccc1)C(=O)N[C@@H](CC(C)C)C(=O)N[C@@H](CCCCN)C(=O)N[C@@H](CCCNC(=N)N)C(=O)N[C@@H](C)C(=O)N[C@@H](CCC(=O)O)C(=O)N[C@@H](CC(N)=O)C(N)=O)C(C)C)C(C)C)C(C)C)[C@@H](C)O [SEQ ID NO:1670] | 65.4 | 
CC[C@H](C)[C@H](NC(=O)[C@H](Cc1ccccc1)NC(=O)[C@H](CCC(N)=O)NC(=O)[C@H](C)NC(=O)[C@H](CCCNC(=N)N)NC(=O)[C@H](CC(C)C)NC(=O)[C@H](CCC(=O)O)NC(=O)[C@H](CCCCN)NC(=O)[C@H](C)NC(=O)[C@H](CO)NC(C)=O)C(=O)N[C@@H](CCCNC(=N)N)C(=O)N[C@H](C(=O)N[C@@H](Cc1ccc(O)cc1)C(=O)N[C@@H](CO)C(=O)N[C@@H](CCCCN)C(=O)NCCCCCCCCCCC(=O)N[C@@H](CC(N)=O)C(=O)N[C@@H](Cc1c[nH]c2ccccc12)C(=O)N[C@H](C(=O)N[C@@H](CCC(N)=O)C(=O)N[C@@H](CCCNC(=N)N)C(=O)N[C@H](C(=O)N[C@H](C(=O)N[C@@H](CCC(=O)O)C(=O)N[C@@H](CCCCN)C(=O)N[C@@H](Cc1ccccc1)C(=O)N[C@@H](CC(C)C)C(=O)N[C@@H](CCCCN)C(=O)N[C@@H](CCCNC(=N)N)C(=O)N[C@@H](C)C(=O)N[C@@H](CCC(=O)O)C(=O)N[C@@H](CC(N)=O)C(N)=O)C(C)C)C(C)C)C(C)C)[C@@H](C)O [SEQ ID NO:1671] | 134.8 | 
CC[C@H](C)[C@H](NC(=O)[C@H](Cc1c[nH]c2ccccc12)NC(=O)[C@H](CCC(N)=O)NC(=O)[C@H](Cc1ccc(O)cc1)NC(=O)[C@H](CCCNC(=N)N)NC(=O)[C@H](CC(C)C)NC(=O)[C@H](CCC(=O)O)NC(=O)[C@H](CCCCN)NC(=O)[C@H](C)NC(=O)[C@H](CO)NC(C)=O)C(=O)N[C@@H](CCCNC(=N)N)C(=O)N[C@H](C(=O)N[C@@H](Cc1ccc(O)cc1)C(=O)N[C@@H](CO)C(=O)N[C@@H](CCCCN)C(=O)NCCCCCCCCCCC(=O)N[C@@H](CC(N)=O)C(=O)N[C@@H](Cc1c[nH]c2ccccc12)C(=O)N[C@H](C(=O)N[C@@H](CCC(N)=O)C(=O)N[C@@H](CCCNC(=N)N)C(=O)N[C@H](C(=O)N[C@H](C(=O)N[C@@H](CCC(=O)O)C(=O)N[C@@H](CCCCN)C(=O)N[C@@H](Cc1ccccc1)C(=O)N[C@@H](CC(C)C)C(=O)N[C@@H](CCCCN)C(=O)N[C@@H](CCCNC(=N)N)C(=O)N[C@@H](C)C(=O)N[C@@H](CCC(=O)O)C(=O)N[C@@H](CC(N)=O)C(N)=O)C(C)C)C(C)C)C(C)C)[C@@H](C)O [SEQ ID NO:1672] | 13.4 | 
